Chains of the proteins cited; added tags and fusions are not shown. Residues count along the entry.
UniProt P30405, 30-207: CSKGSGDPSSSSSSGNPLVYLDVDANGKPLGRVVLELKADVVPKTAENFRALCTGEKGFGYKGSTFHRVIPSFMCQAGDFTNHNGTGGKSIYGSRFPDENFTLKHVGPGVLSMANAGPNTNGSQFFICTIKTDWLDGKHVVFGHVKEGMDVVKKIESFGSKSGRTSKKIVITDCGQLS

In article PMC6853915 (Scientific Reports, 2019):

Tests used:
Conditions in all cases: both partners purified
cyclophilin D = molecular target: T1, cyclophilin D (human, UniProt P30405 30-207); assay: SPR; cypD held on immobilised Ab(cypD); 100 nM 17β-HSD10 flowed for 7 min; 10 mM HEPES, 200 μg/ml BSA, 5 mM Na+, pH 7.4 or 7.8, with K+ (up to 140 mM), Mg2+ or Ca2+ (up to 2.5 mM) alone or K+ and Mg2+ combined; 25 °C; reference channel without cypD
T1 construct: cyclophilin D (cypD), human, recombinant; Held on the chip through an immobilised antibody against cypD; also called cypD; source: bought: Fitzgerald, USA (human, recombinant)

amyloid-β peptide 1–40 = molecular target: T2, amyloid-β peptide 1–40 (human, UniProt P05067 672-711); assay: SPR; cypD held on immobilised Ab(cypD); 17β-HSD10 (100 nM), Aβ1–40 or Aβ1–42 (50-1000 nM, mostly 500 nM) or their mixtures, incubated at 37 °C beforehand (1 hour; or Aβ alone 0-180 min, then 10 min with 17β-HSD10), flowed for 7 or 10 min; HEPES_FINAL (10 mM HEPES, 200 μg/ml BSA, 5 mM Na+, 15 mM K+, 0.1 mM Mg2+, pH 7.4); 25 °C
T2 construct: amyloid-β peptide, residues 1-40 (40 aa), human, cut product of the amyloid precursor protein; numbers count on: the Aβ peptide; The authors take it to stay monomeric under the conditions used; also called Aβ1–40; Aβ_(1–40); source: synthetic peptide; bought: AnaSpec, USA

amyloid-β peptide 1–42 = molecular target: T3, amyloid-β peptide 1–42 (human, UniProt P05067 672-713); assay: as above
T3 construct: amyloid-β peptide, residues 1-42 (42 aa), human, cut product of the amyloid precursor protein; numbers count on: the Aβ peptide; Incubated at 37 °C before injection; the authors take it to form oligomers of a size that was not measured; also called Aβ1–42; Aβ_(1–42); source: synthetic peptide; bought: AnaSpec, USA

binding efficiency with combined Mg2+ (0.25 mM) and K+ relative to K+ only (cyclophilin D): ~2 fold | binding result (amyloid-β peptide 1–40): binds | binding result (amyloid-β peptide 1–42): binds
B1: 17beta-hydroxysteroid dehydrogenase type 10 (enzyme, human, UniProt Q99714 1-261, looked up)
chain: MAAACRSVKGLVAVITGGASGLGLATAERLVGQGASAVLLDLPNSGGEAQAKKLGNNCVFAPADVTSEKDVQTALALAKGKFGRVDVAVNCAGIAVASKTYNLKKGQTHTLEDFQRVLDVNLMGTFNVIRLVAGEMGQNEPDQGGQRGVIINTASVAAFEGQVGQAAYSASKGGIVGMTLPIARDLAPIGIRVMTIAPGLFGTPLLTSLPEKVCNFLASQVPFPSRLGDPAEYAHLVQAIIENPFLNGEVIRLDGAIRMQP
notes: 17beta-hydroxysteroid dehydrogenase type 10 (17β-HSD10), human, recombinant; the oligomeric state was not measured; also called 17β-HSD10; 17beta-hydroxysteroide dehydrogenase 10; source: bought: Fitzgerald, USA (human, recombinant)
